# In patent US10434077B2, “Glycolic acid and/or D-lactic acid for the treatment of neurodegenerative diseases” (MAX-PLANCK-GESELLSCHAFT ZUR FOERDERUNG DER WISSENSCHAFTEN …, priority 2014, dated 2019):
# System: primary dopaminergic neurons from wild-type E14.5 embryos treated with PQ2+
# Settings: 12.5 μM PQ2+ for 72 hours, 10 mM supplement
smiles,measurement,value
"O=C(O)CO [GA, 2-hydroxyethanoic acid]",rescue of the toxic effect of paraquat on dopaminergic neurons,significantly rescue the toxic effect of paraquat
